Assay results taken from PubChem BioAssay (NCATS).
This is a selection; strong and weak results do not stand in their true shares. Records with an inconclusive call do not appear. Active and inactive are the calls of the source. Calls come from the whole dose curve; as a rule, active = well fitted curve in the direction sought with a large enough effect; inconclusive = small, poorly fitted or top-dose-only effect, or another doubt; inactive = no such curve, though single readings can be large; an effect the other way counts as inactive or inconclusive.

What was measured:
[1] = MultiTox-Fluor Cytotoxicity Assay - LYMP1-001 - Dead Cells (AID 946); conditions: LYMP1-001 lymphoblastoid cells, dead-cell protease fluorescence; at 92.2 µM (top of the series);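 note: 0% = DMSO and 100% = tetraoctylammonium bromide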
Outline: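 LYMP1-001 lymphoblastoid cells (2500/well) treated 16 h at 37 C. Dead-cell protease cleavage of bis-AAF-R110 read at Ex/Em 485/520. Normalized to DMSO and 15 uM tetraoctylammonium bromide; AC50 from Hill fits.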

[2] = MultiTox-Fluor Cytotoxicity Assay - LYMP1-001 - Live Cells (AID 947); conditions: LYMP1-001 lymphoblastoid cells, live-cell protease fluorescence viability; at 92.2 µM (top of the series);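 note: 0% = DMSO only and full inhibition = tetraoctylammonium bromide control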
[3] = Cell Viability - LYMP1-002 - Assay at 16 hr (AID 948); conditions: LYMP1-002 lymphoblastoid cell viability; at 92.2 µM (top of the series);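 note: 0% = DMSO alone and full effect = 92 µM tetraoctylammonium bromide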
Outline: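 ATP luminescence (CellTiter-Glo) was measured after 16 hr compound exposure at 37 C of 2500 lymphoblastoid LYMP1-002 cells per well. Concentration-response curves were fitted with the Hill equation to give AC50.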

[4] = MultiTox-Fluor Cytotoxicity Assay - LYMP1-002 - Live Cells (AID 955); conditions: LYMP1-002 lymphoblastoid live-cell protease fluorescence viability; at 46.1 µM (top of the series); note: % is set by controls: 0 for no effect and ±100 for the full control effect
Outline: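 Human lymphoblastoid LYMP1-002 cells, 2500/well in complete medium, rested 5 hr at 37 C, then exposed to compounds for 16 hr at 37 C. Live-cell protease cleavage of GF-AFC read by fluorescence (Ex/Em 405/510) after 60 min at room temperature; AC50 from Hill fits.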

[5] = MultiTox-Fluor Cytotoxicity Assay - LYMP1-002 - Dead Cells (AID 960); conditions: LYMP1-002 lymphoblastoid cells, dead-cell protease fluorescence; at 46.1 µM (top of the series);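 note: 0% = DMSO and 100% = tetraoctylammonium bromide; nearly all actives have a fitted effect of over 60% in size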
Outline: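 Human lymphoblastoid cells (LYMP1-002), 2500/well in complete medium, were exposed to compounds for 16 hr at 37 C. Dead-cell protease activity was read as bis-AAF-R110 fluorescence (Ex/Em 485/520), normalized to DMSO and 15 uM tetraoctylammonium bromide; AC50 from Hill fits.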

[6] = MultiTox-Fluor Cytotoxicity Assay - LYMP1-003 - Dead Cells (AID 961); conditions: LYMP1-003 lymphoblastoid cells, dead-cell protease fluorescence; at 92.2 µM (top of the series);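 note: 0% = DMSO and 100% = tetraoctylammonium bromide; nearly all actives have a fitted effect of over 70% in size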
Outline: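 LYMP1-003 human lymphoblastoid cells (2500/well) exposed to compound 16 h at 37 C in complete medium; dead-cell protease read with bis-AAF-R110 fluorescence (Ex/Em 485/520) after 60 min at room temperature. Normalized to DMSO and 15 uM tetraoctylammonium bromide; AC50 from Hill fit.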

[7] = MultiTox-Fluor Cytotoxicity Assay - LYMP1-003 - Live Cells (AID 962); conditions: LYMP1-003 lymphoblastoid cells, MultiTox-Fluor live-cell protease fluorescence; at 92.2 µM (top of the series);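 note: 0% = DMSO only and full loss = 92 µM tetraoctylammonium bromide; cytotoxic hits lower the live-cell protease signal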
Outline: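 LYMP1-003 human lymphoblastoid cells (2500/well) in complete medium were preincubated 5 hr at 37 C, then exposed to compounds for 16 hr at 37 C. Live-cell protease cleavage of GF-AFC read by fluorescence (Ex/Em 405/510); AC50 from Hill fits.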

[8] = Cell Viability - LYMP1-003 - Assay at 24 hr (AID 963); conditions: LYMP1-003 lymphoblastoid cell viability; at 92.2 µM (top of the series);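 note: plate controls were DMSO only for no effect and tetraoctylammonium bromide positive control for full effect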
Outline: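 Human lymphoblastoid LYMP1-003 cells (2500/well) were rested 5 hr at 37 C, then exposed to compounds in complete medium for 24 hr at 37 C. Cellular ATP was quantified by CellTiter-Glo luminescence, and AC50 values came from Hill fits of concentration-response data.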

[9] = Cell Viability - LYMP1-003 - Assay at 40 hr (AID 964); conditions: LYMP1-003 lymphoblastoid viability; at 92.2 µM (top of the series); note: % is set by controls: 0 for no effect and ±100 for the full control effect; nearly all actives have a fitted effect of over 60% in size
Outline: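 Human lymphoblastoid LYMP1-003 cells, 2500/well in complete medium, rested 5 hr at 37 C, then exposed to compounds for 40 hr at 37 C. Viability read as intracellular ATP by CellTiter-Glo luminescence; AC50 from Hill fits of concentration-response data.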

[10] = Cell Viability - LYMP2-003 (AID 965); conditions: LYMP2-003 lymphoblastoid cell viability; at 92.2 µM (top of the series);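 note: cells exposed to compounds for 24 h before reading; 0% = DMSO only and full effect = 92 µM tetraoctylammonium bromide; nearly all actives have a fitted effect of over 50% in size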
Outline: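 CellTiter-Glo luminescence quantified ATP loss after 24 h compound treatment of LYMP2-003 lymphoblastoid cells at 37 C. Titration series were fitted with the standard Hill equation to give AC50.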

[11] = Cell Viability - LYMP2-004 (AID 966); conditions: LYMP2-004 lymphoblastoid cell viability, qHTS; at 92.2 µM (top of the series);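 note: plate controls were DMSO only for no effect and tetraoctylammonium bromide control for full effect; nearly all actives have a fitted effect of over 65% in size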
Outline: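 Human lymphoblastoid cells (2500/well) in complete medium were treated with compounds for 24 hr at 37 C, then intracellular ATP was measured by CellTiter-Glo luminescence. AC50 values came from Hill-equation fits of concentration-response data.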

[12] = Cell Viability - LYMP2-005 (AID 967); conditions: LYMP2-005 lymphoblastoid cell viability; at 92.2 µM (top of the series);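 note: plate controls were DMSO only for no effect and 92 µM tetraoctylammonium bromide control for full effect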
Outline: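 LYMP2-005 human lymphoblastoid cells (2500/well) were treated with compounds for 24 h at 37 C. Intracellular ATP was then measured by CellTiter-Glo luminescence after 30 min at room temperature. AC50 values came from Hill-equation fits of qHTS concentration-response data.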

[13] = Cell Viability - LYMP2-009 (AID 968); conditions: LYMP2-009 lymphoblastoid cell viability; at 92.2 µM (top of the series);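 note: 0% = DMSO alone and the full-kill end = tetraoctylammonium bromide at 92 µM; nearly all actives have a fitted effect of over 55% in size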
[14] = Cell Viability - LYMP2-011 (AID 969); conditions: LYMP2-011 lymphoblastoid cells viability; at 92.2 µM (top of the series);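 note: 0% = DMSO only and full inhibition = 92 µM tetraoctylammonium bromide; nearly all actives have a fitted effect of over 60% in size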
Outline: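 Human lymphoblastoid cells (2500/well) were plated in complete medium, preincubated 5 hr at 37 C, then exposed to compounds for 24 hr at 37 C. Intracellular ATP was read by CellTiter-Glo luminescence, and AC50 came from Hill-equation concentration-response fits.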

[15] = Cell Viability - LYMP2-013 (AID 970); conditions: LYMP2-013 lymphoblastoid cells viability; at 92.2 µM (top of the series);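 note: 0% = DMSO only and full inhibition = tetraoctylammonium bromide control; nearly all actives have a fitted effect of over 55% in size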
Outline: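 Human lymphoblastoid cells, 2500/well, were preincubated 5 hr at 37 C, then treated with compounds for 24 hr at 37 C in complete medium. Intracellular ATP was read by CellTiter-Glo luminescence; AC50 from Hill-equation fits of concentration-response data.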

[16] = Cell Viability - LYMP2-015 (AID 971); conditions: LYMP2-015 lymphoblastoid cell viability; at 92.2 µM (top of the series);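 note: 0% = DMSO only and full effect = 92 µM tetraoctylammonium bromide; nearly all actives have a fitted effect of over 55% in size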
Outline: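 Human lymphoblastoid cells (2500/well) in complete medium were preincubated 5 hr at 37 C, then compound-treated 24 hr at 37 C. Intracellular ATP was read by CellTiter-Glo luminescence after 30 min at room temperature; AC50 came from Hill-equation concentration-response fits.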

[17] = Cell Viability - LYMP2-017 (AID 972); conditions: LYMP2-017 lymphoblastoid cell viability; at 92.2 µM (top of the series); note: % is set by controls: 0 for no effect and ±100 for the full control effect; nearly all actives have a fitted effect of over 55% in size
Outline: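 Human lymphoblastoid cells (2500/well) were seeded in complete medium, held 5 hr at 37 C, then exposed to compounds for 24 hr at 37 C. Intracellular ATP was read by CellTiter-Glo luminescence after 30 min at room temperature, with AC50 values from Hill-equation fits.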

[18] = Cell Viability - LYMP2-019 (AID 973); conditions: LYMP2-019 lymphoblastoid cell line viability; at 92.2 µM (top of the series)
Outline: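 Human lymphoblastoid cells were seeded at 2500 cells/well, preincubated 5 hr at 37 C, then exposed to compounds for 24 hr at 37 C in complete medium. Intracellular ATP was measured by CellTiter-Glo luminescence; AC50 from Hill fits.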

Cc1ccc([N+](=O)[O-])cc1[N+](=O)[O-]
inactive: cytotoxicity (dead cells) [1] -11.7% | activity change, negative = cytotoxicity [2] -4.82% | activity change, negative = cytotoxicity [3] -6.46% | viability change, negative = cytotoxic [4] 9.74% | cytotoxicity (dead cells) [5] 2.11% | cytotoxicity (dead cells) [6] -9.43% | activity change, negative = fewer live cells [7] -2.7% | viability change, negative = cytotoxic [8] -4.52% | activity change, negative = cytotoxic [9] -16.7% | activity change, negative = cytotoxicity [10] 5.37% | activity change, negative = cytotoxicity [11] -4.93% | activity change, negative = viability loss [12] 4.89% | activity change, negative = viability loss [13] -14.1% | viability change, negative = cytotoxic [14] -5.77% | activity change, negative = cytotoxic [15] -2.64% | activity change, negative = lower viability [16] -8.21% | activity change, negative = cytotoxicity [17] -2.13% | activity change, negative = cytotoxicity [18] -2.94%

Cc1ccc([N+](=O)[O-])c([N+](=O)[O-])c1
inactive: cytotoxicity (dead cells) [1] 11.1% | activity change, negative = cytotoxicity [3] -10.3% | viability change, negative = cytotoxic [4] 2.14% | cytotoxicity (dead cells) [5] 5.76% | cytotoxicity (dead cells) [6] 13.8% | activity change, negative = fewer live cells [7] -3.65% | viability change, negative = cytotoxic [8] -18.9%

O=[N+]([O-])[O-].[NH4+]
inactive: cytotoxicity (dead cells) [1] 2.76% | activity change, negative = cytotoxicity [2] 7.03% | activity change, negative = cytotoxicity [3] -0.442% | viability change, negative = cytotoxic [4] -1.41% | cytotoxicity (dead cells) [5] 8.24% | cytotoxicity (dead cells) [6] -9.7% | activity change, negative = fewer live cells [7] -0.794% | viability change, negative = cytotoxic [8] -1.13% | activity change, negative = cytotoxic [9] 0.414% | activity change, negative = cytotoxicity [10] 21.7% | activity change, negative = cytotoxicity [11] -10.8% | activity change, negative = viability loss [12] 28.2% | activity change, negative = viability loss [13] 1.15% | viability change, negative = cytotoxic [14] -1.13% | activity change, negative = cytotoxic [15] -12.8% | activity change, negative = lower viability [16] -5.12% | activity change, negative = cytotoxicity [17] 2.14% | activity change, negative = cytotoxicity [18] -6.34%

O=[N+]([O-])c1cccc([N+](=O)[O-])c1
inactive: cytotoxicity (dead cells) [1] -12.9% | activity change, negative = cytotoxicity [2] -10.2% | activity change, negative = cytotoxicity [3] -4.09% | viability change, negative = cytotoxic [4] 1.49% | cytotoxicity (dead cells) [5] 9.88% | cytotoxicity (dead cells) [6] -4.17% | activity change, negative = fewer live cells [7] -3.69% | viability change, negative = cytotoxic [8] 3.39% | activity change, negative = cytotoxic [9] -9.69% | activity change, negative = cytotoxicity [10] 10.1% | activity change, negative = cytotoxicity [11] 0.653% | activity change, negative = viability loss [12] 10.9% | activity change, negative = viability loss [13] -3.25% | viability change, negative = cytotoxic [14] 6.46% | activity change, negative = cytotoxic [15] -4.52% | activity change, negative = lower viability [16] -15.2% | activity change, negative = cytotoxicity [17] -11.4% | activity change, negative = cytotoxicity [18] -5.41%

Cc1c([N+](=O)[O-])cccc1[N+](=O)[O-]
inactive: cytotoxicity (dead cells) [1] -15.5% | activity change, negative = cytotoxicity [3] 0.892% | viability change, negative = cytotoxic [4] -0.459% | cytotoxicity (dead cells) [5] 5.24% | cytotoxicity (dead cells) [6] -3.66% | activity change, negative = fewer live cells [7] -3.51% | viability change, negative = cytotoxic [8] -2.66% | activity change, negative = cytotoxic [9] -0.898% | activity change, negative = cytotoxicity [10] 0.896% | activity change, negative = cytotoxicity [11] 6% | activity change, negative = viability loss [12] 10.9% | activity change, negative = viability loss [13] -2.57% | viability change, negative = cytotoxic [14] -2.56% | activity change, negative = cytotoxic [15] 0.651% | activity change, negative = lower viability [16] -5.97% | activity change, negative = cytotoxicity [17] -8.46% | activity change, negative = cytotoxicity [18] -9.5%
